Results reported in PubChem BioAssay AID652067 (The Scripps Research Institute Molecular Screening Center, 2013).
The entries are a selection whose mix differs from that of the whole data set. Activity calls are given as the source filed them.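 The calls were made as follows: active = activation above the mean of all tested compounds plus 3 SD (cut at about 5.5% in these data); inactive = the rest.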

These compounds were tested on DAF-12 nuclear receptor (Haemonchus contortus) (assay: hcDAF-12 driven luciferase reporter activation – cell-based, luminescence, HEK293, lit1-tk-luc reporter, primary screen (AID 652067;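 also: 100% = response to 3 µM Δ7-dafachronic acid high control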)). Details: HEK293 hcDAF-12 lit1-tk-luc reporter, at 6.8 µM, active compounds read high, 0% DMSO, 100% Δ7-dafachronic acid.
`N#CCCN(C(=O)COC(=O)C(O)(c1ccccc1)c1ccccc1)c1ccc(F)cc1` was tested, and the activation was inactive: -1.08%.
In the case of `CCOP1(=S)c2c(C)nn(CCC#N)c2N=C(c2ccc(F)cc2)N1C` (stereo not drawn), the activation is reported as inactive: -1.51%.
`CN(C(=O)Cc1ccccc1)[C@@H]1CC[C@]2(CCCO2)C[C@H]1N1CCCC1` was tested, and the activation was inactive: -0.78%.
For `CN(C)C(=O)c1cc([N+](=O)[O-])cc2c1-c1c(cc([N+](=O)[O-])cc1[N+](=O)[O-])C2=O`, the activation was inactive: 2.58%.
For `O=[N+]([O-])c1ccc2c(c1)nnn2O`, the activation was inactive: -1.43%.
With `CN(C(=O)Cc1ccc(Cl)c(Cl)c1)[C@H]1CC[C@@]2(CCCO2)C[C@@H]1N1CCCC1` the activation was inactive: -0.71%.
For `NC(=O)Nc1ccc([As](=O)(O)O)cc1`, the activation was inactive: 0.28%.
In the case of `CN(C)C1(CNC(=O)c2ccc(S(C)(=O)=O)cc2)CCCCC1`, the activation is reported as inactive: -1.31%.
`O=C(/C=C/c1ccccc1)OC1CN2CCC1CC2` (stereo not drawn) was tested, and the activation was inactive: -1.46%.
`CCCC1OP(=O)(Nc2ccccc2)OCC1CC` (stereo not drawn) was tested, and the activation was inactive: 1.31%.
`Cc1nn(-c2ccccc2)c2c1P(=O)(N1CCOCC1)N(C)C(c1ccccc1)=N2` (stereo not drawn) was tested, and the activation was inactive: -1.32%.
In the case of `CC1CCC(C(C)C)C(OP(=O)(Nc2ccccn2)c2ccccc2)C1` (stereo not drawn), the activation is reported as inactive: -1.43%.
For `Cc1ccc(C(=O)OC2CN3CCC2CC3)cc1` (stereo not drawn), the activation was inactive: 1.77%.
For `Nc1cccc([As](=O)(O)c2ccccc2)c1`, the activation was inactive: -1.42%.
In the case of `O=P1(Nc2ccc(Br)cn2)COc2ccccc2OC1`, the activation is reported as inactive: 1.44%.
In the case of `NS(=O)(=O)c1cccc(NC(=O)COC(=O)C(O)(c2ccccc2)c2ccccc2)c1`, the activation is reported as inactive: 0.19%.
In the case of `Cc1ccc(OCC(=O)OC2CN3CCC2CC3)cc1` (stereo not drawn), the activation is reported as inactive: -1.73%.
In the case of `O=[As](O)(c1cccs1)c1cccs1`, the activation is reported as inactive: -0.98%.
`Cc1ccc(S(=O)(=O)N(CCCN)CCCc2c(C)nc(N)[nH]c2=O)cc1` was tested, and the activation was inactive: 0.24%.
`O=P1(Nc2ncccn2)COc2ccccc2OC1` was tested, and the activation was inactive: -0.64%.
In the case of `O=P1(N(CCCl)CCCl)NCCC(C(F)(F)F)O1` (stereo not drawn), the activation is reported as inactive: -0.83%.
For `Clc1n[nH]nc1-c1nn[nH][15n]1`, the activation was inactive: -1.27%.
`CC(C)(C)C(=O)NC(Sc1ncccn1)C(Cl)(Cl)Cl` (stereo not drawn) was tested, and the activation was inactive: 1.41%.
In the case of `O=P1(Nc2ccccn2)COc2ccccc2OC1`, the activation is reported as inactive: -1.45%.
With `CCC1=CC2Cc3nc4ccc(Cl)cc4c(N)c3C(C1)C2` (stereo not drawn) the activation was inactive: -2.67%.
In the case of `CCOP(=O)(NC(=NC(C)c1ccccc1)NC(C)c1ccccc1)OCC` (stereo not drawn), the activation is reported as inactive: 1.24%.
With `CN(CCCl)Cc1cc(Cl)c(NC2=NCCN2)c(Cl)c1` the activation was inactive: 1.68%.
For `CCOP(=O)(Nc1ccc(C)cn1)OCC`, the activation was inactive: -0.31%.
For `CC(C)/C=N\N=C(\N)N[N+](=O)[O-]`, the activation was inactive: -1.06%.
`CN(C(=O)Cc1ccc(Cl)c(Cl)c1)[C@@H]1CCCC[C@H]1N1CCCC1` was tested, and the activation was inactive: 3%.
`CN(C(=O)Cc1ccc(Cl)c(Cl)c1)C1CCCC[C@@H]1N1CCCC1` (stereo partly drawn) was tested, and the activation was inactive: 0.47%.
`CC1(CBr)Cn2c(nc3ccccc3c2=O)S1` (stereo not drawn) was tested, and the activation was inactive: -0.89%.
With `COc1ccccc1CNC(=O)COC(=O)C(O)(c1ccccc1)c1ccccc1` the activation was inactive: -0.06%.
`O=C(O)C(=O)c1ccc(N(CCCl)CCCl)cc1` was tested, and the activation was inactive: -0.85%.
With `O=C(COc1ccccc1)OC1CN2CCC1CC2` (stereo not drawn) the activation was inactive: -1.07%.
For `O=C(Nc1ccncc1[N+](=O)[O-])c1ccc([N+](=O)[O-])cc1[N+](=O)[O-]`, the activation was inactive: -2.53%.
With `COP1(=S)c2c(C)nn(CCC#N)c2N=C(c2ccc(F)cc2)N1C` (stereo not drawn) the activation was inactive: -1.62%.
`COC(=O)C1(C)COP(=O)(N2CCCC2)OC1` (stereo not drawn) was tested, and the activation was inactive: -0.49%.
For `CCC(C)N(CC(C)C)C(=S)SC(NC(C)=O)C(Cl)(Cl)Cl` (stereo not drawn), the activation was inactive: -0.04%.
In the case of `O=C(OC1CN2CCC1CC2)c1cccc([N+](=O)[O-])c1` (stereo not drawn), the activation is reported as inactive: 0.49%.
With `CCOC(=O)c1ccc(NC(=O)C(C)(CCl)SC)cc1` (stereo not drawn) the activation was inactive: 3.47%.
`COP(=O)(OC)N1CC1c1ccccc1` (stereo not drawn) was tested, and the activation was inactive: -1.59%.
For `CCCCOc1ccc(C(=O)NCC2(N3CCCCC3)CCCCC2)cc1OC`, the activation was inactive: -0.76%.
`Cc1cc(SC(NC(=O)c2ccccc2)C(Cl)(Cl)Cl)nc(C(C)C)n1` (stereo not drawn) was tested, and the activation was inactive: -1.65%.
In the case of `CCOC(=O)Nc1ccc([As](=O)(O)O)c(O)c1`, the activation is reported as inactive: 0.14%.
With `O=C(O)C(O)c1ccc(N(CCCl)CCCl)cc1` (stereo not drawn) the activation was inactive: -0.02%.
For `CC1CCNP(=O)(N(CCCl)CCCl)O1` (stereo not drawn), the activation was inactive: 1.2%.
`O=P(Nc1ccccn1)(c1cccc2ccccc12)c1cccc2ccccc12` was tested, and the activation was inactive: -0.74%.
`Cc1cc(SC(NC=O)C(Cl)(Cl)Cl)ncn1` (stereo not drawn) was tested, and the activation was inactive: -1.14%.
With `O=[N+]([O-])c1ccc(Nc2ccc(Oc3ccc([N+](=O)[O-])cc3[N+](=O)[O-])cc2)c([N+](=O)[O-])c1` the activation was inactive: -0.53%.
`CCOC(=O)Nc1cccc([As](=O)(O)O)c1` was tested, and the activation was inactive: 0.45%.
With `[N-]=[N+]=NC1CCCCC1NC(=O)c1cc([N+](=O)[O-])cc([N+](=O)[O-])c1` (stereo not drawn) the activation was inactive: -0.82%.
For `Cc1ccc(OP(=O)(Nc2ccc([N+](=O)[O-])cn2)Oc2ccc(C)cc2)cc1`, the activation was inactive: -2.9%.
With `Cc1ccc2nc3c(c(C)c2c1)CC(C(Cl)Cl)S3` (stereo not drawn) the activation was inactive: 3.29%.
`O=[As](O)(c1ccc(O)cc1)c1ccccc1O` was tested, and the activation was inactive: 1.03%.
For `C[As](=O)(O)c1cccc(C(=O)O)c1`, the activation was inactive: 3.39%.
With `COc1cc(C(=O)NCC2(N3CCOCC3)CCCCC2)ccc1OCC(C)C` the activation was inactive: 1.04%.
In the case of `O=[N+]([O-])c1ccc(-c2cc([N+](=O)[O-])c(O)c([N+](=O)[O-])c2)cc1`, the activation is reported as inactive: 1.33%.
For `CCN(CC)C(=S)SC(NC=O)C(Cl)(Cl)Cl` (stereo not drawn), the activation was inactive: -1.02%.
For `O=C(OC1CN2CCC1CC2)c1cccc2[nH]cnc12` (stereo not drawn), the activation was inactive: -0.08%.
In the case of `CC(C)NC(=O)NP(=O)(Oc1ccccc1)Oc1ccccc1`, the activation is reported as inactive: -1.45%.
With `ClCCSc1nnc(-c2cccnc2)o1` the activation was inactive: -1.86%.
With `CC(C)c1ccc(OP(=O)(Nc2ccccn2)Oc2ccccc2F)cc1` (stereo not drawn) the activation was inactive: 1.32%.
In the case of `COC(=O)C1(C)COP(=O)(N2CCCCCC2)OC1` (stereo not drawn), the activation is reported as inactive: -2.33%.
`O=P1(N(CCCl)CCCl)OCCCN1CCCl` (stereo not drawn) was tested, and the activation was inactive: 1.69%.
`O=P1(N(CCCl)CCCl)Nc2ccccc2N1` was tested, and the activation was inactive: 4.98%.
With `COc1ccc2nc(NP(=O)(c3ccccc3)c3ccccc3)sc2c1` the activation was inactive: -1.22%.
`COc1cc(I)ccc1[As](=O)(O)O` was tested, and the activation was inactive: -0.96%.
In the case of `Cc1c2c(nc3ccccc13)SC(C(Cl)Cl)C2` (stereo not drawn), the activation is reported as inactive: -1.23%.
In the case of `O=C(OC1CN2CCC1CC2)C12CC3CC(CC(C3)C1)C2` (stereo not drawn), the activation is reported as inactive: 0.4%.
With `Cc1cc(=O)[nH]c(N[N+](=O)[O-])n1` the activation was inactive: 0.11%.
In the case of `O=[N+]([O-])c1cc(Oc2ccc([N+](=O)[O-])cc2C(F)(F)F)cc([N+](=O)[O-])c1`, the activation is reported as inactive: -0.75%.
For `COc1ccc(N/C(=N/P(=O)(N2CCOCC2)N2CCOCC2)N2CCOCC2)cc1`, the activation was inactive: -1.24%.
